pIC50, pKi: −log10 of the molar value.
Legend:
Adenosine receptor A3 [1] = target: T1, Adenosine receptor A3 (Homo sapiens, UniProt P0DMS8); test: Displacement of [125I]AB-MECA binding to Adenosine A3 receptor expressed in CHO cells; format: cell-based
Adenosine receptor A1 = Adenosine receptor A1 (Homo sapiens, UniProt P30542); test: Displacement of [3H]CHA binding to Adenosine A1 receptor expressed in CHO cells; format: cell-based
Adenosine receptor A3 [2] = target: T1, Adenosine receptor A3; test: Inhibition of (10 uM) forskolin-mediated cAMP production in CHO cells expressing human Adenosine A3 receptor; format: functional, cell-based

Chains of the proteins cited; added tags and fusions are not shown.
UniProt P0DMS8, whole entry: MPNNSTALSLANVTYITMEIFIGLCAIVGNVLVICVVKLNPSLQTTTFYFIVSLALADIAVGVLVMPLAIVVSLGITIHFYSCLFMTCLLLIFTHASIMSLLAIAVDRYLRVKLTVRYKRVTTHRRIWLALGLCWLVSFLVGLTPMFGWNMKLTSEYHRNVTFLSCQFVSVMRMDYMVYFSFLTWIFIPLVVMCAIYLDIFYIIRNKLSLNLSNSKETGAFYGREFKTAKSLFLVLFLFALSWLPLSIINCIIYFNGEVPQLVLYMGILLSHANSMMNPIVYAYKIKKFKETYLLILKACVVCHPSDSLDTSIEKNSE
UniProt P30542, whole entry: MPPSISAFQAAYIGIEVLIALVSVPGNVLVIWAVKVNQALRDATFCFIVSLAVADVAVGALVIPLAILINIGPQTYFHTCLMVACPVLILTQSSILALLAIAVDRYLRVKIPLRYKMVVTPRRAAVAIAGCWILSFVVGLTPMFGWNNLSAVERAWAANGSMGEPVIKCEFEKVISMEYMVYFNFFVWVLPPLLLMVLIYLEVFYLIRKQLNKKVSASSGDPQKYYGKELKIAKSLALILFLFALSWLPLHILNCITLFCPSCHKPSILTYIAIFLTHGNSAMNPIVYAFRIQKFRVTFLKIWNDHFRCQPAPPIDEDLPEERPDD

Structure (SMILES)	pKi (Adenosine receptor A3 [1])	pKi (Adenosine receptor A1)	pIC50 (Adenosine receptor A3 [2])
CCNC(=O)[C@H]1OC(n2cnc3c(NC(=O)Nc4ccc(S(=O)(=O)NC5CCCCC5)cc4)ncnc32)C(O)C1O (single isomer, unassigned)	7.64		
CCNC(=O)[C@H]1OC(n2cnc3c(NC(=O)Nc4ccc(S(=O)(=O)N5CCCCC5)cc4)ncnc32)C(O)C1O (single isomer, unassigned)	7.77	6.12	
CCNC(=O)[C@H]1OC(n2cnc3c(NC(=O)Nc4ccc(S(=O)(=O)N(C)C)cc4)ncnc32)C(O)C1O (single isomer, unassigned)	7.92		
CCNC(=O)[C@H]1OC(n2cnc3c(NC(=O)Nc4ccc(S(=O)(=O)N5CCCC5)cc4)ncnc32)C(O)C1O (single isomer, unassigned)		6.15	
CCNC(=O)[C@H]1OC(n2cnc3c(NC(=O)Nc4ccc(S(=O)(=O)Nc5ccc(OC)cc5)cc4)ncnc32)C(O)C1O (single isomer, unassigned)	7.64		
CCNC(=O)[C@H]1OC(n2cnc3c(NC(=O)Nc4ccc(S(=O)(=O)N(CC)CC)cc4)ncnc32)C(O)C1O (single isomer, unassigned)	8.05	6.46	7.30
CCNC(=O)[C@H]1OC(n2cnc3c(NC(=O)Nc4ccc(S(=O)(=O)NCc5ccccc5)cc4)ncnc32)C(O)C1O (single isomer, unassigned)	7.62		
C=CCN(C)S(=O)(=O)c1ccc(NC(=O)Nc2ncnc3c2ncn3C2O[C@H](C(=O)NCC)C(O)C2O)cc1 (single isomer, unassigned)		6.69	

From ChEMBL document CHEMBL1138800, “Synthesis and biological evaluation of novel N6-[4-(substituted)sulfonamidophenylcarbamoyl]adenosine-5'-uronamides as A3 adenosine receptor agonists” (J Med Chem, 2004)
